Laboratory results: patent US10543227B2, “Hair growth composition” (RIKEN, priority 2015, dated 2020)

Conditions: mouse, in vivo
Procedure: Each test drug was applied to hair-shaved back sites (in an amount of 200 μL per site) of 5-6 animals per group, daily at a frequency of once a day. At 10 minutes and 30 minutes after the application on Day 20, average body surface temperature (° C.) was measured. […] Body surface temperature (° C.) was measured by photographing a hair-shaved site and its periphery using an infrared thermography camera (Thermoshot F30S (NEC/Avio, Tokyo, Japan)). The average body surface temperature per area was calculated using InfRec Analyzer NS9500 Standard (NEC/Avio, Tokyo, Japan).
These animals were subjected to drawing blood from the hearts on the final week for biochemical examination. Each blood was allowed to stand still on ice for 30 minutes and centrifuged twice at 10,000 rpm for 15 minutes (at 4° C.). The supernatants (i.e., sera) were transferred to new containers and stored in a freezer (at −80° C.). The sera were analyzed using a clinical chemistry analyzer for animal (FUJI DRI-CHEM 3500V) and special slides to obtain the values of [GPT (glutamate-pyruvate transaminase), GOT (glutamate oxaloacetate transaminase), GGT (γ-glutamyl transferase), LDH (lactate dehydrogenase), CHE (cholinesterase), CPK (creatine phosphokinase), ALB (albumin), TP (total protein), TCHO (total cholesterol), and TG (triglyceride)].

## Nc1cc(N2CCCCC2)nc(N)[n+]1[O-] [Minoxidil, minoxidil, reference compound]
  GPT (ALT): 22.8 ± 4.3 U/l
